ALDH1A1 inh: inhibitors of human aldehyde dehydrogenase 1A1; P00352; Potency, µM (titrated, usually from 75.3 µM), for the others: at the highest dose activity, negative = inhibition, hits mostly inhibitors; Purified ALDH1A1, NADH fluorescence, propionaldehyde substrate; 220,000 compounds, 7.3% hits; AID 1030; active = well fitted inhibition curve with a large enough effect, not every such curve was filed as active; inconclusive = small, poorly fitted or top-dose-only effect, or another doubt; inactive = no such curve, though single readings can be large or run the other way;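 also: potency is read from the fitted curve at half-maximal effect; plate controls were no enzyme wells and a reference inhibitor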
JMJD2E inh: inhibitors of human JMJD2E histone demethylase; B2RXH2; JMJD2E catalytic domain, FDH-coupled NADH fluorescence (FDH is formaldehyde dehydrogenase); Potency, µM (titrated, usually from 57.1 µM), inactives show at the top dose activity change, negative = inhibition, actives largely listed as inhibitors; 230,000 compounds, 1.6% hits; active = well fitted inhibition curve with a large enough effect, not every such curve was filed as active; inconclusive = small, poorly fitted or top-dose-only effect, or another doubt; inactive = no such curve, though single readings can be large or run the other way;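 also: potency is read from the fitted curve at half-maximal effect; 0% = wells with enzyme and -100% = buffer wells without enzyme; nearly all actives have a fitted effect of over 50% in size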
miR-21 reporter: miR-21 reporter, rising signal | HeLa miR-21 FLuc reporter, luciferase, 48 h | Potency, µM (top dose mostly 38.3 µM), inactives show at the top dose reporter change, positive = more light | 340,000 tested, under 10 active | AID 2288; active = well fitted rising curve with a large enough effect; inconclusive = small, poorly fitted or top-dose-only effect; inactive = no such curve, though single readings can be large or run the other way;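 further: % of control where 0% means no effect; miR-21 action dims this reporter so a rising signal means less miR-21 action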
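HeLa miR-21-FLuc reporter line, endogenous miR-21; 2000 cells/well in DMEM/10% FBS; compound titration up to ~40uM final, 48 h, 37 degree Celsius; luciferase detection reagent, 15 min lysis, CCD luminescence.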
G9a block: G9a (human) methyltransferase inhibition; 350,000 compounds, 8.8% hits; AID 504332; Potency, µM (series often up to 102 µM), inactives show at the highest dose activity, negative = inhibition, most hits filed as inhibitors; G9a H3K9 monomethylation, AlphaScreen, 2 h; Q96KQ7; also: potency is read from the fitted curve at half-maximal effect; % is scaled to controls: 0 for no effect and ±100 for the full control effect; nearly all actives have a fitted effect of over 75% in size
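AlphaScreen detection with an anti-monomethyl H3K9 antibody quantified product after a 2 h room-temperature reaction containing 500 nM biotinylated H3K9 peptide, 20 µM SAM and 20 nM enzyme, which had been preincubated 15 min with compound.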
Sfp inh: qHTS Assay for Inhibitors of Bacillus subtilis Sfp phosphopantetheinyl transferase (PPTase). Potency, µM, inactives show max response, negative = inhibition, most hits filed as inhibitors. Biochemical Sfp PPTase activity, qHTS. AID 1490, 2009. 4'-phosphopantetheinyl transferase ffp (Bacillus subtilis), Q9F4F7. hit rate 3.5% among 310,000; active = well fitted inhibition curve with a large enough effect; inconclusive = small, poorly fitted or top-dose-only effect, or another doubt; inactive = no such curve, though single readings can be large or run the other way;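 also: the enzyme is Sfp with the accession as filed and its product quenches rhodamine fluorescence; potency is read from the fitted curve at half-maximal effect; 0% = enzyme reaction without inhibitor and -100% = no enzyme wells; top concentration of the series not given in the record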
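Reaction rates are the 30-min fluorescence difference (ex 525, em 598 nm) in wells containing 15 nM Sfp, 5 uM rhodamine-CoA and 12.5 uM BHQ-2-YbbR at pH 7.6 with 10 mM MgCl2.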
Lamin A splicing: modulators of lamin A splicing; HeLa LMNA splicing GFP/RFP minigene ratio, 48 h; Potency, µM (doses to about 46.1 µM), for inactives: top-dose ratio change, negative = inhibition, most hits filed as inhibitors; 200,000 compounds, 0.01% hits; AID 1487; active = well fitted inhibition curve with a large enough effect in the signal ratio, with a control signal flat, not every such curve was filed as active; inconclusive = small, poorly fitted or top-dose-only effect, or effect the other way, or a change in a side signal; the % refers to the signal ratio; also: potency is read from the fitted curve at half-maximal effect; % is scaled to controls: 0 for no effect and ±100 for the full control effect
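S3 HeLa cells stably expressing lamin A-EGFP splicing minigene plus DsRed2, 600 cells/well, 48 h compound exposure at 37C. Laser-scanning cytometry; analysed as GFP (500-530 nm)/RFP (575-640 nm) total intensity ratio; 0.5% DMSO vehicle.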
Numbers without * were called inactive; [ ] = remark or other dose. A selection: hits, their analogues and other compounds. The true share with any hit is near 13%. Unless noted, calls follow the shape of the dose curve; as a rule, active = well fitted curve in the direction sought with a large enough effect; inconclusive = small, poorly fitted or top-dose-only effect, or another doubt; inactive = no such curve, though single readings can be large; an effect the other way counts as inactive or inconclusive.

`CCOc1cc(C=C(C#N)C#N)ccc1Oc1ccc([N+](=O)[O-])cn1` gave ALDH1A1 inh 3.2µM*, JMJD2E inh inconclusive, miR-21 reporter 2%, G9a block inconclusive and Sfp inh -17%.
`CC(CNC(=O)CN1C(=O)COc2ccc(S(=O)(=O)N3CCCCCC3)cc21)c1ccccc1` (stereo not drawn) gave miR-21 reporter -3% and G9a block -27%[59 µM].
CC1CN(c2c(F)c(N)c3c(=O)c(C(=O)O)cn(C4CC4)c3c2F)CC(C)N1 (stereo not drawn) was read as ALDH1A1 inh 8%, G9a block 30%[59 µM], Sfp inh 17% and Lamin A splicing inconclusive.
Screening O=C1S/C(=C/c2ccc(N3CCOCC3)o2)C(=O)N1Cc1ccc(F)cc1 returned ALDH1A1 inh 2.2µM*, JMJD2E inh -6%, miR-21 reporter -3%, G9a block 7.9µM*, Sfp inh 3.5µM* and Lamin A splicing 5%.
COc1ccc2cc(/C=C3\SC(=S)NC3=O)c(N3CCOCC3)nc2c1 was read as ALDH1A1 inh 22%, JMJD2E inh -7%, miR-21 reporter -5%, G9a block inconclusive, Sfp inh -8% and Lamin A splicing inconclusive.
For CC(C)OC(=O)CN1C(=O)S/C(=C/c2ccc(N3CCCCC3)o2)C1=O the results were ALDH1A1 inh 7.1µM*, JMJD2E inh inconclusive, miR-21 reporter 4%, G9a block inconclusive, Sfp inh 8.9µM* and Lamin A splicing 9%.
Screening O=C1NC(=S)S/C1=C/c1ccc(N2CCOCC2)o1 returned ALDH1A1 inh 8%, JMJD2E inh -4%, miR-21 reporter -18%, G9a block 4.5µM*, Sfp inh inconclusive and Lamin A splicing inconclusive.
`O=C(CCN1C(=O)S/C(=C/c2ccc(Cl)cc2)C1=O)N1CCOCC1` gave ALDH1A1 inh 5%, JMJD2E inh 1%, miR-21 reporter -6%, G9a block 20%[59 µM], Sfp inh 17% and Lamin A splicing -12%.
O=C1S/C(=C\c2ccc(N3CCOCC3)o2)C(=O)N1Cc1ccc(F)cc1 was read as ALDH1A1 inh 8.9µM*, JMJD2E inh -1%, miR-21 reporter 0%, G9a block inconclusive, Sfp inh 2µM* and Lamin A splicing inconclusive.
CCOCCCNc1ncnc2c1cnn2-c1ccc(C)c(C)c1 was read as miR-21 reporter 3%, G9a block 0%[59 µM] and Lamin A splicing inconclusive.
O=C(C1CCN(S(=O)(=O)Cc2ccccc2)CC1)N1CCN(c2cccc(Cl)c2)CC1 was read as miR-21 reporter 2% and G9a block -36%[59 µM].
For Cc1ccc(CNC(=O)CN(c2cccc(C)c2C)S(=O)(=O)c2ccccc2)cc1 the results were miR-21 reporter inconclusive and G9a block -28%[59 µM].
`Brc1ccc(-n2cnc(-c3ccccc3)c2)cc1` gave miR-21 reporter -41%, G9a block inconclusive and Sfp inh 15%.
Nc1nn2cc(-c3ccc(Br)cc3)nc2c2ccccc12 was read as JMJD2E inh inconclusive, miR-21 reporter -44%, G9a block 79µM* and Sfp inh -14%.
For CCCCC1C2C(=O)N(c3ccc(C)cc3)C(=O)C2ON1c1ccccc1 (stereo not drawn) the results were JMJD2E inh 1%, miR-21 reporter -41% and Sfp inh 11%.
`CCc1ccc(NC(=O)CCn2nc(-c3ccccc3OC)c3c(C)cc(C)nc32)cc1` gave miR-21 reporter 13% and G9a block -1%[59 µM].
`Cc1c(C(=O)Nc2ccncc2)sc2nc(-c3ccc(F)cc3)cn12` gave ALDH1A1 inh 6%, JMJD2E inh inconclusive, miR-21 reporter -17%, G9a block 40µM*, Sfp inh -15% and Lamin A splicing 5%.
For CCOc1ccc(NC(=O)c2sc3nc(-c4ccc(OC)cc4)cn3c2C)cc1 the results were miR-21 reporter -1%, G9a block -3%[59 µM] and Lamin A splicing 7%[46 µM].
COc1ccc(-c2cn3c(C)c(C(=O)Nc4ccncc4)sc3n2)cc1 was read as ALDH1A1 inh inconclusive, JMJD2E inh inconclusive, miR-21 reporter -16%, G9a block 13µM*, Sfp inh 45µM* and Lamin A splicing -10%.
`COc1ccc(-c2cn3c4c(sc3n2)CCCC4)cc1` gave ALDH1A1 inh inconclusive, JMJD2E inh -13%, miR-21 reporter 1%, G9a block 50µM*, Sfp inh 79µM* and Lamin A splicing 1%.
Screening COc1ccc(-c2cn3c(n2)sc2cc(C(=O)Nc4cc(OC)cc(OC)c4)ccc23)cc1 returned miR-21 reporter -8%, G9a block -23%[59 µM] and Lamin A splicing -3%[46 µM].
Screening Cc1cccc(-c2nnn3c2nc(NCc2ccccc2)c2ccccc23)c1 returned miR-21 reporter -19% and G9a block 6%[59 µM].
`Nc1ccc(CN2CCOCC2)cc1` gave ALDH1A1 inh 5%, JMJD2E inh 1%, miR-21 reporter 0%, G9a block -6% and Sfp inh 6%.
For Cc1cccc(-c2noc(CCCC(=O)NC3CCCCC3)n2)c1 the results were miR-21 reporter 0%, G9a block 31%[59 µM] and Sfp inh 12%.
O=S(=O)(Nc1cc(Sc2ncn[nH]2)c(O)c2ccccc12)c1ccccc1 was read as ALDH1A1 inh 14µM*, JMJD2E inh 13µM*, miR-21 reporter inconclusive, G9a block 1.4µM* and Sfp inh 8.9µM*.
`Cc1ccc(S(=O)(=O)Nc2ccc(Br)cc2C(NCC(=O)O)c2ccccc2)cc1` (stereo not drawn) gave ALDH1A1 inh -5%, JMJD2E inh -2%, miR-21 reporter 19%, G9a block inconclusive, Sfp inh -7% and Lamin A splicing -18%.
O=C(O)CSc1cc(NS(=O)(=O)c2ccc(Br)cc2)c2ccccc2c1O was read as miR-21 reporter 27%, G9a block 1.8µM* and Sfp inh 40µM*.
For N=c1ncn(Cc2ccccc2)c2nc(SCCOc3ccccc3)[nH]c12 the results were ALDH1A1 inh 0%, JMJD2E inh -8%, miR-21 reporter -19%, G9a block 79µM*, Sfp inh 21% and Lamin A splicing 3%.
Cc1ccc(N(Cc2cc3ccc(C)cc3[nH]c2=O)C(=O)c2ccco2)c(C)c1 was read as JMJD2E inh inconclusive, miR-21 reporter -1%, G9a block inconclusive and Sfp inh 50µM*.
Screening Cc1ccc2cc(CN(C(=O)c3ccco3)c3cccc(C)c3C)c(=O)[nH]c2c1 returned JMJD2E inh -28%, miR-21 reporter 0%, G9a block inconclusive and Sfp inh 32µM*.

Part of the list above in order of SMILES length, low to high.
For Cc1cccc(-c2noc(CCCC(=O)NC3CCCCC3)n2)c1 the results were miR-21 reporter 0%, G9a block 31%[59 µM] and Sfp inh 12%.
For N=c1ncn(Cc2ccccc2)c2nc(SCCOc3ccccc3)[nH]c12 the results were ALDH1A1 inh 0%, JMJD2E inh -8%, miR-21 reporter -19%, G9a block 79µM*, Sfp inh 21% and Lamin A splicing 3%.
O=C(O)CSc1cc(NS(=O)(=O)c2ccc(Br)cc2)c2ccccc2c1O was read as miR-21 reporter 27%, G9a block 1.8µM* and Sfp inh 40µM*.
Screening Cc1ccc2cc(CN(C(=O)c3ccco3)c3cccc(C)c3C)c(=O)[nH]c2c1 returned JMJD2E inh -28%, miR-21 reporter 0%, G9a block inconclusive and Sfp inh 32µM*.

Bioassay records as filed in PubChem.
